US5668161A, “Substituted thiazoles for the treatment of inflammation” (G.D. Searle & Co., priority 1996, dated 1997)

Target: T1, murine COX-II (Mus musculus, UniProt Q05769)
T1 sequence (Q05769 18-604): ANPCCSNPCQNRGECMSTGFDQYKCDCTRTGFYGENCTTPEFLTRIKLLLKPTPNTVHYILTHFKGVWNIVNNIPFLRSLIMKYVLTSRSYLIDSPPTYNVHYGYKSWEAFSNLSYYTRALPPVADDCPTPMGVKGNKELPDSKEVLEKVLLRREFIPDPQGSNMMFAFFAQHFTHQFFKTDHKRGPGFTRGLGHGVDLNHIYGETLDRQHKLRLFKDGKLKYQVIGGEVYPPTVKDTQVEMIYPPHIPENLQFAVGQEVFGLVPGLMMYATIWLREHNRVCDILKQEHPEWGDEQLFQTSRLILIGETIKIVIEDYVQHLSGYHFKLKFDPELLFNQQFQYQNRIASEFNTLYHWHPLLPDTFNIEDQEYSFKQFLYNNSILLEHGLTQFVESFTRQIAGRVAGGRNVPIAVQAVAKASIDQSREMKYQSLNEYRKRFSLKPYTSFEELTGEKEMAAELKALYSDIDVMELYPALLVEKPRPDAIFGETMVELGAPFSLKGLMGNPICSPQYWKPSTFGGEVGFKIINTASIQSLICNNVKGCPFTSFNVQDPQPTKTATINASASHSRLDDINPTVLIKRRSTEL
Experiment: biochemical

CS(=O)(=O)c1ccc(-c2sc(COc3ccc(Cl)cc3)nc2-c2ccc(F)cc2)cc1 [Example 1, 2-((4-Chlorophenoxy)methyl)-4-(4-fluorophenyl)-5-(4-methylsulfonylphenyl)thiazole]
IC50: 100 nM
